Legend:
MBP [1] = target: T1, MBP (Escherichia coli, UniProt P0AEX9); assay: Surface Plasmon Resonance, immobilized MBP, peptides as analytes; assay type: binding
T1 construct: made in house; host or cells: E. coli BL21(DE3)
Protocol: SPR was employed to evaluate the affinities of designed peptides towards the MBP protein. SPR experiments were carried out by immobilizing MBP on a CM5 chip with an immobilization level of 4900 RU, while peptides were employed as analytes.
The interactions between the protein and computationally optimized peptides were measured using the BIAcore 3000 (GE Healthcare Milano, Italy). MBP was immobilized at a concentration of 100 μg/mL in 10 mM acetate buffer pH 5 (flow rate 5 μL/min, time injection 7 min) on a CM5 Biacore sensor chip, using EDC/NHS chemistry following the manufacturer’s instructions. Residual reactive groups were deactivated by treatment with 1 M ethanolamine hydrochloride, pH 8.5. The reference channel was activated with EDC/NHS and deactivated with ethanolamine. The binding assays were carried out at 20 μL /min at 25°C, with 4.5 min contact-time. Peptides were diluted in the HBS running buffer (10 mM Hepes, 150 mM NaCl, 3 mM EDTA, pH 7.4). Analyte injections were performed at the indicated concentrations. The sensor surface was regenerated by using 1–3 washes of 10mM NaOH for 1 minute. The association phase (kon) was followed for 250s, whereas the dissociation phase (koff) was followed for 300 s. The instrument BIAevaluation analysis package (version 4.1, GE Healthcare, Milano, Italy) was used to subtract the signal of the reference channel. Conversely, an affinity steady state model was applied to fit the RUmax data versus peptides concentrations and fitting was performed with GraphPad Prism v4.00 using the one-site binding equation [53, 54].

MBP [2] = target: T1, MBP; assay: Tryptophan fluorescence quenching binding analysis; conditions: 1:1 model, MBP 14 μM, 25.0°C; read-out: KD (tryptophan fluorescence quenching at 333 nm)
Protocol: In this experiment the peptide concentration was twofold greater than KD, thus MBP protein was nearly saturated and consequently the signal decrease resulted from peptide displacement.
The data were acquired at 25.0°C, using an excitation wavelength of 298.0 nm and a fluorescence emission wavelength ranging from 300 to 400 nm. The acquisition parameters were set as follows: excitation and emission slits at 5 nm; 120 nm/min scan rate; 1.00 nm data interval averaging time at 0.500 s, PMT voltage at “high”. The fluorescence values recorded at 333 nm were extracted, and transformed to -Δfluorescence which was obtained by subtracting them to the emission fluorescence intensity of the ligand-free protein, and, then, plotted against the peptide concentration. […] Experiments were carried out in duplicates. A control assay was carried out employing as titrant the buffer to assess that the dilution effect was under 3%, not affecting the results.

[3] = steady state, saturated signals, read-out: KD (SPR, fitting of RUmax values vs peptides concentrations)

| Structure (SMILES) | Kd (MBP [1]; [3]) | Kd (MBP [2]) | Kd (MBP [1]; immobilized MBP on CM5 chip, 25°C, HBS pH 7.4, read-out: KD (SPR determined)) |
| --- | --- | --- | --- |
| C[C@H](NC(=O)[C@@H]1CCCN1C(=O)[C@@H](N)CO)C(=O)NCC(=O)NCC(=O)N[C@@H](CCC(N)=O)C(=O)N[C@@H](CC(=O)O)C(=O)N[C@@H](Cc1ccccc1)C(N)=O [MBP-1] | 4.2 ± 1.4 mM |  |  |
| C[C@H](N)C(=O)N1CCC[C@H]1C(=O)N[C@@H](CCCNC(=N)N)C(=O)NCC(=O)NCC(=O)N[C@@H](CC(N)=O)C(=O)N[C@H](C(=O)N[C@@H](CO)C(N)=O)[C@@H](C)O [MBP-3] | 1.5 ± 0.2 mM |  |  |
| N=C(N)NCCC[C@H](NC(=O)[C@H](Cc1ccccc1)NC(=O)[C@H](Cc1ccc(O)cc1)NC(=O)[C@@H]1CCCN1C(=O)[C@H](Cc1ccccc1)NC(=O)[C@H](Cc1c[nH]cn1)NC(=O)[C@@H](N)Cc1ccc(O)cc1)C(=O)N[C@@H](Cc1ccccc1)C(N)=O [MBP-9] |  | 65 ± 10 µM | 0.072 ± 0.003 mM |
| CSCC[C@H](NC(=O)CNC(=O)CNC(=O)[C@H](CCCCN)NC(=O)[C@H](CCC(N)=O)NC(=O)[C@@H]1CCCN1)C(=O)N[C@@H](Cc1c[nH]c2ccccc12)C(=O)N[C@@H](CC(=O)O)C(N)=O [MBP-6] | 1.3 ± 0.5 mM |  |  |
